Biological target: human CGRP receptor (Homo sapiens, UniProt O60894+Q16602)
Test: cAMP functional assay (HTRF cAMP dynamic-2) in SK-N-MC cells
Conditions: SK-N-MC cells endogenously expressing human CGRP receptor; challenge with EC80 human CGRP (0.3 nM); functional pKb converted from pIC50 by modified Cheng-Prussoff equation
Experimental: cAMP production following receptor activation was determined using the Homogeneous Time-Resolved Fluorescence (HTRF) cAMP dynamic-2 assay (Cisbio, France). The human neuroblastoma cell line SK-N-MC endogenously expressing the human CGRP receptor was seeded at a density of 12,500 cells/well in solid walled 96 well half area plates (Costar, Catalog Number 3688, Corning Life Sciences, Germany). After 16 h incubation at 37° C. media was removed and cells were incubated at 37° C. for 30 min in serum free media containing 500 μM IBMX (Tocris, Abingdon, UK, Catalog Number 2845) and increasing concentrations of test antagonist. Following this cells were challenged with an EC80 concentration of human CGRP (0.3 nM) for a further 30 m at 37°) and then cAMP production was determined as manufacturer's instructions before plates were read on a PheraStar fluorescence plate reader (BMG LabTech, Germany). IC50 values were derived from the inhibition curve. The pIC50 values (where pIC50=−log10 IC50) were converted to a functional pKb value using a modified Cheng-Prussoff equation where Kd=agonist EC50 and L hot=agonist challenge concentration. The pKb values of certain compounds of the invention are detailed in Table 5.

Sequences of proteins named here, by UniProt entry; tags and fusion partners are left off. Residues count along the entry.
UniProt O60894, 27-148 limits assumed: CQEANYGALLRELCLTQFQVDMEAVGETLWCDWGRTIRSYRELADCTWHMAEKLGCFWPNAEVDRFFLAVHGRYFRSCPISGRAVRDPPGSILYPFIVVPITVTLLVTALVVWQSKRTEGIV
UniProt Q16602, 23-461 limits assumed: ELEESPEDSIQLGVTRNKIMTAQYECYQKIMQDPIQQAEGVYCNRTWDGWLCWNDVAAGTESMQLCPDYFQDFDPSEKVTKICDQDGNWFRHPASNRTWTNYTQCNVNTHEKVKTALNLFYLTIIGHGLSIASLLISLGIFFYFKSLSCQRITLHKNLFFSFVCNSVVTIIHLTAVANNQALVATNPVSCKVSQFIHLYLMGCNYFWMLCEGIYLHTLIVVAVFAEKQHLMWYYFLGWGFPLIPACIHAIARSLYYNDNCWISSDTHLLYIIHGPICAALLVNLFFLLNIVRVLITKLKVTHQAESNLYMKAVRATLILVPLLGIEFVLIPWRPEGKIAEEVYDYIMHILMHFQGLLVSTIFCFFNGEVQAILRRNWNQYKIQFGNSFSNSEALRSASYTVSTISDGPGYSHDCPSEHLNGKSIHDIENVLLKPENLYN

SMILES | CGRP pKb
O=C1NC2CC(c3ccccc3)CN(CCOCCOC/C=C/c3cnc4c(c3)[C@@]3(Cc5cc1cnc5C3)C(=O)N4)C2=O (single isomer, unassigned) [6-1 Isomer 1] | 6.3
O=C1NC2CC(c3ccccc3)CN(CCOCCOC/C=C/c3cnc4c(c3)[C@@]3(Cc5cc1cnc5C3)C(=O)N4)C2=O (single isomer, unassigned) [6-1 Isomer 2] | 8.5
O=C1NC2CC(c3ccccc3)CN(CCOCCOCCOC/C=C/c3cnc4c(c3)[C@@]3(Cc5cc1cnc5C3)C(=O)N4)C2=O (single isomer, unassigned) [6-2 Isomer 1] | 7.5
O=C1NC2CC(c3ccccc3)CN(CCOCCOCCOC/C=C/c3cnc4c(c3)[C@@]3(Cc5cc1cnc5C3)C(=O)N4)C2=O (single isomer, unassigned) [6-2 Isomer 2] | 8.9
CC1C(c2ccccc2)CC2NC(=O)c3ccc4c(c3)C[C@@]3(C4)C(=O)Nc4ncc(cc43)/C=C/COCCOCCN1C2=O (single isomer, unassigned) [9-1 Mixture (Isomer 1)] | 7.9
CC1C(c2ccccc2)CC2NC(=O)c3ccc4c(c3)C[C@@]3(C4)C(=O)Nc4ncc(cc43)/C=C/COCCOCCN1C2=O (single isomer, unassigned) [9-1 Mixture (Isomer 2)] | 9.9
O=C1NC2CC(c3ccccc3)CN(CCOCCOC/C=C/c3cnc4c(c3)[C@]3(Cc5ccc1cc5C3)C(=O)N4)C2=O (single isomer, unassigned) [10-1 Isomer 1] | 7.6
O=C1NC2CC(c3ccccc3)CN(CCOCCOC/C=C/c3cnc4c(c3)[C@]3(Cc5ccc1cc5C3)C(=O)N4)C2=O (single isomer, unassigned) [10-1 Isomer 2] | 6.9
